# Assay results reported in ChEMBL document CHEMBL1147659, “Structure-based drug design of a novel family of PPARgamma partial agonists: virtual screening, X-ray crystallography, and in vitro/in vivo biological activities” (J Med Chem, 2006).
# Protein sequences, listed by entry. Tags and fused reporters are not part of them. Lines headed by an entry give the natural chain unless they say otherwise; changes in a name come on top.
# UniProt P37231: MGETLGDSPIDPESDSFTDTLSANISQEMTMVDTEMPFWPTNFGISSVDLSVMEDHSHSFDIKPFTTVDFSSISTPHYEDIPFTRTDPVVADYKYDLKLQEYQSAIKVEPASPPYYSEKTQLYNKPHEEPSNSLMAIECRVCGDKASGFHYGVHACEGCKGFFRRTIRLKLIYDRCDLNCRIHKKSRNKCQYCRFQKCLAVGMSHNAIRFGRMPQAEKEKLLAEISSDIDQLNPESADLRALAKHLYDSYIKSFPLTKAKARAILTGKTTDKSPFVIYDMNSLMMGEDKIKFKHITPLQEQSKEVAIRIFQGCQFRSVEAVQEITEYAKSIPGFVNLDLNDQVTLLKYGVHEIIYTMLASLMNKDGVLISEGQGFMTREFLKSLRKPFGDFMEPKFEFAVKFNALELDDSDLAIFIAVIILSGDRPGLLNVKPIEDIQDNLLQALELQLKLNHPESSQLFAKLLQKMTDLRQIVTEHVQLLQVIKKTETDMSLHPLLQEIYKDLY
# Target: Peroxisome proliferator-activated receptor gamma (Homo sapiens, UniProt P37231)
# Assay: Displacement of [3H]rosiglitazone from PPARgamma by SPA
smiles,measurement,value
O=S(=O)(Nc1cc(-c2cccs2)nn1-c1ccc(F)cc1)c1cc(C(F)(F)F)cc(C(F)(F)F)c1,IC50,22.7 nM
